Literature values, collected in PMC2788666 (Journal of medicinal chemistry, 2009).

The chains behind the UniProt entries cited, without tags or fusion partners. Where a name states a change or a piece, a line headed by the entry shows the natural chain unless it says otherwise.
UniProt P41145: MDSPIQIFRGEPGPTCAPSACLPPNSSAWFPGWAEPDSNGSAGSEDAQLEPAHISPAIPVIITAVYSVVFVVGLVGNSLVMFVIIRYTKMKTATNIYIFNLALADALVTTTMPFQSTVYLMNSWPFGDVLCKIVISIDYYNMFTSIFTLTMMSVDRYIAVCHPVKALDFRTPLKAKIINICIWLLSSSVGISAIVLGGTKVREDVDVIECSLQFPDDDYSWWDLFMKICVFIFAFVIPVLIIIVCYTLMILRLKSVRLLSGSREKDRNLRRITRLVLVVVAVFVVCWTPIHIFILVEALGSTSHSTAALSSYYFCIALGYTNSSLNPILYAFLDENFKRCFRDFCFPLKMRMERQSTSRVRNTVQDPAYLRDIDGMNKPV

Target: κ opioid receptor (Homo sapiens, UniProt P41145)
Conditions: ratio of Ki values, κ = 1; ref [9]; cited from earlier work

Question: With `Oc1ccc2c(c1)[C@@]13CCCC[C@H]1[C@@H](C2)N(CC1CCC1)CC3` [Butorphan, butorphan] as the compound, how does the “Selectivity μ/δ/κ” value read?
Answer: 3/75/1
